Reference: patent US7033773B1, “Screening assays for G protein coupled receptor agonists and antagonists” (The General Hospital Corporation, priority 1997, dated 2006)

Key:
human PTH/PTHrP receptor [1] = biological target: T1, human PTH/PTHrP receptor (Homo sapiens, UniProt Q03431); assay: Cellular cAMP accumulation in LLC-PK1 cells expressing human PTHR; assay type: cell-based; parameters: transfected with a full-length human PTH/PTHrP receptor cDNA; expressed in transfected cells; settings: 1000 nM, 15 min, mean±SD
T1 sequence (Q03431 27-593): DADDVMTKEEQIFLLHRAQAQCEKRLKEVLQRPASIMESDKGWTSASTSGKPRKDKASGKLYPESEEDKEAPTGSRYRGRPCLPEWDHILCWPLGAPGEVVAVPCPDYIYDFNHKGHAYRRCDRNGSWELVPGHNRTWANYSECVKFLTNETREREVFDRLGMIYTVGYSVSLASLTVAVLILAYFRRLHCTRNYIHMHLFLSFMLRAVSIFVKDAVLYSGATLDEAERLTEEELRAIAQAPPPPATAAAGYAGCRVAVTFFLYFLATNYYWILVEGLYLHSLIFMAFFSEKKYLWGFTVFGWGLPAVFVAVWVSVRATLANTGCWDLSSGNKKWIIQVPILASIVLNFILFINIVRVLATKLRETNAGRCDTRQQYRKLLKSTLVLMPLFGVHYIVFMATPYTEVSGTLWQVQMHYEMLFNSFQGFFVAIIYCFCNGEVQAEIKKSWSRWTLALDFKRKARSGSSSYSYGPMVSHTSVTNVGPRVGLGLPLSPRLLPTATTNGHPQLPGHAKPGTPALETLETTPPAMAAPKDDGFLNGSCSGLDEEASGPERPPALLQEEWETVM
Protocol: Cells were seeded into 24-well plates at a density of 2.5×10^5 cells/well and cultured for a further 2 days before study. The cells were rinsed once with 0.5 ml of ice-cold Buffer B [10 mM HEPES (pH 7.4), 130 mM NaCl, 5 mM KCl, 1.2 mM CaCl2, 1 mM MgCl2, 1.2 mM Na2HPO^4 5 mM glucose, and 0.1% heat-inactivated BSA] supplemented with 1 mM isobtylmethylxanthine (IBMX), and placed on ice. Treatments were added to each well in 0.25 ml of IBMX-supplemented Buffer B, after which the plates were incubated at 37° C. for 15 min. The buffer then was rapidly aspirated, the plates were rapidly transferred onto liquid nitrogen, and the frozen monolayers were subsequently thawed directly into 0.5 ml of 50 mM HCl. The extracted cAMP then was measured using a commercial RIA kit (Dupont-New England Nuclear, Boston, Mass.). Results were expressed as fold-basal, where basal levels ranged between 38 and 128 pmol/mg protein/15 min. The basal level of cAMP accumulation in native LLC-PK1 cells was not consistently altered in subclones that expressed wild type PTH/PTHrp receptors.
Maximal PTH-dependent cAMP accumulation was assessed in the human PTHR-transfected LLC-PK1 subclones following incubation for 15 min with a high concentration (1000 nM) of hPTH(1-34) (Table 1). As reported previously for LLC-PK1 cells that stably expressed rat PTHRs (Guo, J., et al., Endocrinology 136:3884-3891 (1995)), the maximal adenylyl cyclase response was relatively independent of the surface density of human PTHRs above a relatively low threshold (relative to that required for PLC activation—see below). In the case of the human PTHR, however, this threshold for saturation of maximal AC activation appeared to lie between 120,000 and 280,000 (Table 1), which is at least 6 to 10-fold higher than that previously observed for the rat PTHR (Guo, J., et al., Endocrinology 136:3884-3891 (1995)).

human PTH/PTHrP receptor [2] = biological target: T1, human PTH/PTHrP receptor; assay: Cytosolic free calcium (fura-2) in LLC-PK1 cells expressing human PTHR
human PTH/PTHrP receptor [3] = biological target: T1, human PTH/PTHrP receptor; assay: IP3 production (PLC activation) in LLC-PK1 cells expressing human PTHR; assay type: cell-based; parameters: transfected with a full-length human PTH/PTHrP receptor cDNA; expressed in transfected cells; settings: HKRK B28 cells; 1000 nM
Protocol: Cells were seeded into 24-well plates at a density of 2.5×10^5 cells/well and cultured for a further 2 days before study. The cells were labeled at 37° C. for 16 h before assay with 3 uCi/ml of [^3H]myo-inositol in assay medium (serum- and inositol-free DMEM (GIBCO-BRL, Grand Island, N.Y.) supplemented with 0.1% BSA). After washing the cells with prewarmed assay medium containing 30 mM LiCl, they were incubated with 0.25 ml of assay medium containing 30 mM LiCl and stimulators (or vehicle) at 37° C. for various intervals(1-30 min). IP3 formation was arrested by aspiration and immediate addition of 0.5 ml of ice-cold 5% TCA. […] After eluting other fractions (free [^3H]myo-inositol, glycerophosphate inositol, IP1, and IP2), IP3 fractions were collected and their content of radioactivity was determined by liquid scintillation spectrometry (Beckman, model LS 6000IC).
HKRK B7 cells and HKRK B28 cells, previously loaded with [^3H]myo-inositol, were incubated with each peptide (1000 nM) for 30 min or 4 min, respectively. The formation of IP3 is expressed as a percentage of the amount measured in vehicle-treated controls. […]

## CC[C@H](C)[C@H](NC(=O)[C@H](CCC(=O)O)NC(=O)[C@H](CO)NC(=O)[C@@H](NC(=O)[C@@H](N)CO)C(C)C)C(=O)N[C@@H](CCC(N)=O)C(=O)N[C@@H](CC(C)C)C(=O)N[C@@H](CCSC)C(=O)N[C@@H](Cc1c[nH]cn1)C(=O)N[C@@H](CC(N)=O)C(=O)N[C@@H](CC(C)C)C(=O)NCC(=O)N[C@@H](CCCCN)C(=O)N[C@@H](Cc1c[nH]cn1)C(=O)N[C@@H](CC(C)C)C(=O)N[C@@H](CC(N)=O)C(=O)N[C@@H](CO)C(=O)N[C@@H](CCSC)C(=O)N[C@@H](CCC(=O)O)C(=O)N[C@@H](CCCNC(=N)N)C(=O)N[C@H](C(=O)N[C@@H](CCC(=O)O)C(=O)N[C@@H](Cc1c[nH]c2ccccc12)C(=O)N[C@@H](CC(C)C)C(=O)N[C@@H](CCCNC(=N)N)C(=O)N[C@@H](CCCCN)C(=O)N[C@@H](CCCCN)C(=O)N[C@@H](CC(C)C)C(=O)N[C@@H](CCC(N)=O)C(=O)N[C@@H](CC(=O)O)C(=O)N[C@H](C(=O)N[C@@H](Cc1c[nH]cn1)C(=O)N[C@@H](CC(N)=O)C(=O)N[C@@H](Cc1ccc(O)cc1)C(N)=O)C(C)C)C(C)C [hPTH(1-34), [Tyr^34]hPTH(1-34)]
Human PTH/PTHrP receptor [1]; HKRK B7 cells
  cAMP Accumulation (maximal response): 99 ± 10 fold basal
Human PTH/PTHrP receptor [1]; HKRK B28 cells
  cAMP Accumulation (maximal response): 103 ± 17 fold basal
Human PTH/PTHrP receptor [1]; HKRK B64 cells
  cAMP Accumulation (maximal response): 13 ± 2 fold basal
Human PTH/PTHrP receptor [1]; HKRK C27 cells
  cAMP Accumulation (maximal response): 64 ± 8 fold basal
Human PTH/PTHrP receptor [1]; HKRK C53 cells
  cAMP Accumulation (maximal response): 58 ± 16 fold basal
Human PTH/PTHrP receptor [1]; HKRK C101 cells
  cAMP Accumulation (maximal response): 94 ± 1 fold basal
Human PTH/PTHrP receptor [2]; 100 nM peptide, HKRK B7 and HKRK B28
  time to peak of cytosolic free calcium elevation: ≤ 20 s
Human PTH/PTHrP receptor [2]; 100 nM peptide, HKRK B7 and HKRK B28 monolayers, no significant difference
  peak cytosolic free calcium: 400 to 600 nM
Human PTH/PTHrP receptor [2]; AB45 cells
  time for calcium transient to approach basal levels: 2 to 3 min
Human PTH/PTHrP receptor [2]; AB45 cells (370,000 hPTHRs/cell, co-express REV AB)
  cytosolic calcium response in cAMP-resistant cells: robust cytosolic calcium response
Human PTH/PTHrP receptor [3]
  time of decrease of IP3 to basal levels: ≤ 10 min
  time of peak of transient IP3 formation: 4 min
